Measurements from ChEMBL document CHEMBL4819008, “Design, synthesis, and evaluation of "dual-site"-binding diarylpyrimidines targeting both NNIBP and the NNRTI adjacent site of the HIV-1 reverse transcriptase” (Eur J Med Chem, 2021).

Target: Human immunodeficiency virus type 1 reverse transcriptase (Human immunodeficiency virus 1, UniProt Q72547)
Assay: Inhibition of HIV-1 reverse transcriptase assessed as reduction in biotin-dUTP incorporation into cDNA incubated for 1 hr with DIG-dUTP, biotin-dUTP and dTTP followed by transferring onto streptavidin-coated plate and measured after 1 hr by ELISA
Method in brief: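 Recombinant WT HIV-1 RT was tested with a Roche colorimetric kit. Enzyme, reconstituted template, DIG-dUTP, biotin-dUTP and dTTP were incubated 1 h at 37 °C in incubation buffer with or without inhibitor. The mix was then held 1 h at 37 °C on a streptavidin-coated plate, then anti-DIG-POD 1 h at 37 °C, then ABTS at 25 °C, and read at OD405. IC50 is the concentration giving 50% inhibition of biotin-dUTP incorporation.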

Cc1cc(C#N)cc(C)c1Oc1nc(Nc2ccc(C#N)cc2)nc(N)c1Br [ETRAVIRINE]
IC50: 350 nM
